Laboratory results reported in patent publication US8278280B2, “Antagonists of the bradykinin B1 receptor” (priority 2003, dated 2012).
Like-named read-outs stand apart in the source and are kept apart here. Marks after values point to notes of the source that are not given here.

What was measured:
[1] = cited from earlier work
[2] = Rat pharmacokinetic studies; type: in vivo, male Sprague-Dawley rats
Method: Various peptides or conjugated peptides (in an aqueous medium) were dosed as a bolus to male Sprague-Dawley rats via an intravenous (iv) or subcutaneous (sc) route. Blood samples were collected at various time points (e.g., 0, 15, 30 minutes and/or 1, 2, 4, 6, 8, 10, 12, 18, 24, 30, 36, 42, 48, 60, 72, 84, 96, 120, 240, and/or 320 hours after the injection) into heparized tubes. Plasma was removed from pelleted cells upon centrifugation and either frozen or immediately processed. The compound of interest in the plasma was quantitated by an analyte-specific LC-MS/MS or an ELISA method. Various standard pharmacokinetic parameters such as clearance (CL), apparent clearance (CL/F), volume of distribution (Vss), mean residence time (MRT), area under the curve (AUC), and terminal half-life (t1/2) were calculated by non-compartmental method (for example, see Table 9).

human B1 receptor = target: T1, human B1 receptor (Homo sapiens, UniProt P46663); assay: In vitro assay of human B1 receptor function using calcium flux (aequorin); type: cell-based
T1 construct: expressed in transfected cells
T1 sequence (P46663 1-353): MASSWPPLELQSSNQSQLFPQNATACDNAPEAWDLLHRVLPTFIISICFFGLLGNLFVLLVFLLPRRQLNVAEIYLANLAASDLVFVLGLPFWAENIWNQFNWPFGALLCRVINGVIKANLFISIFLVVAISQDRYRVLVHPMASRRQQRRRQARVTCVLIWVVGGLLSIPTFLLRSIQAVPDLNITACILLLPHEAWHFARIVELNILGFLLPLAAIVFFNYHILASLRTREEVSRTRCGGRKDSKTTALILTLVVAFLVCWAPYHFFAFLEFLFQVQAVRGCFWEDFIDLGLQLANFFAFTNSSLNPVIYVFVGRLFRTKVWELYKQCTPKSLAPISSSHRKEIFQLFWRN
Excerpt: Activation of the Gq linked B1 receptor results in an increase in intracellular calcium. […] Aequorin is a 21-kDa photoprotein that forms a bioluminescent complex when linked to the chromophore cofactor coelenterazine.

human B1 receptor (hB1) = target: T2, human B1 receptor (hB1) (Homo sapiens, UniProt P46663); assay: Binding affinity (Ki) at the human B1 receptor
T2 sequence (P46663 1-353): T1 sequence (P46663 1-353)

[3] = Table 8, functional potency, read-out: hB1 IC50
[4] = hB1 aequorin assay, text values (n=8, n=9), read-out: IC50 at the hB1 receptor

| Substance | half-life in plasma [1] | t1/2 ([2]; 3 mpk iv) | IC50 (human B1 receptor; [3]) [nM] | Ki (human B1 receptor (hB1)) [nM] | t1/2 ([2]; 1 mpk sc) | t1/2 ([2]; 1 mpk iv) | t1/2 ([2]; 30 mpk sc) | IC50 (human B1 receptor; [4]) [nM] |
| --- | --- | --- | --- | --- | --- | --- | --- | --- |
| Arg Pro Pro Gly Phe Ser Pro Phe Arg [BK] | approximately 17 seconds | – | – | – | – | – | – | – |
| D-Lys D-2-Nal Arg Pro Hyp Gly Cpg Ser DTic Cpg [SEQ ID NO: 49] | – | 1.0^i h | 0.5 | 0.77 | – | – | – | – |
| DLys Lys Arg Pro Hyp Gly Cpg Ser DTic Cpg [SEQ ID NO: 22] | – | 1.0^i h | 2 | 0.38 | – | – | – | – |
| DOrn Lys Arg Pro Hyp Gly Cpg Ser DTic Cpg [SEQ ID NO: 15] | – | – | 1 | 0.19 | 2.76^c h | – | – | – |
| Lys D-2-Nal Arg Pro Hyp Gly Cpg Ser DTic Cpg [SEQ ID NO: 50] | – | 2.0^i h | 6 | 0.2 | – | – | – | – |
| Lys Lys Arg Pro Hyp Gly Cpg Ser DTic Cpg [SEQ ID NO: 13, reference compound] | – | – | 0.5 | 0.1 | – | 0.6^h | 1.2^g h | 3 |
| acyl-KKRP[Hyp]G[Cpg]S[DTic]Cpg] [SEQ ID NO: 37] | – | 0.4^i h | 1 | 0.8 | – | – | 0.6^g h | 3.2 |
